Binding of CDR-mutated scFvs to a peptide of the spike HR2 region

Data: MIT Lincoln Laboratory AlphaSeq set, Engelhart et al. 2022, doi:10.1038/s41597-022-01779-4, as distributed in FLAb.

All variants were tested on one target, the spike HR2 peptide PDVDLGDISGINAS (SARS-CoV-2).

Ab-95 is the parent antibody, in scFv form: VH, then a (GGGGS)3 linker, then VL. The heavy chain is unchanged in all variants.
VH: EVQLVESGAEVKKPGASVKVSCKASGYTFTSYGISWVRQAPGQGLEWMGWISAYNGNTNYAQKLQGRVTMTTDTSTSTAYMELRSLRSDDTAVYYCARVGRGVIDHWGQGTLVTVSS
VL: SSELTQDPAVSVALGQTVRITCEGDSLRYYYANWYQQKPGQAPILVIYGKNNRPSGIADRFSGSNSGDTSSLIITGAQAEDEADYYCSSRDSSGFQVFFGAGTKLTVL

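The library (AAYL52) carries one to three amino acid substitutions per variant, with no insertions or deletions. Affinity was read by AlphaSeq, a pooled yeast mating assay with surface-displayed partners. After mating in shaken culture at 30 °C for 16 h, diploids were selected and their barcode pairs sequenced. A regression on co-assayed BCL2-family reference pairs converts the normalised counts of each replicate to an apparent Kd. Each pool was mated in three replicate cultures.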

Each variant is given by its three light chain CDRs, as the data file delimits them; those of the parent are EGDSLRYYYAN, GKNNRPS, SSRDSSGFQVF. Each Kd is an estimate from the mating assay, the geometric mean of the replicates in which the pair was seen; lower is stronger. Where no diploid with the target was found in any replicate, the entry reads "not detected": below detection, most likely a poor binder, though not proof of it. Empty control strains, which show no peptide, gave a signal in 28% of pairings with library AAYL52; the median was 8.2 µM and 95% of these signals were weaker than 800 nM. No background was subtracted. For reference, the parent read 200 nM as the reference entry and 180 nM as a member of this library.

| CDR-L1 | CDR-L2 | CDR-L3 | apparent Kd | seen in |
|---|---|---|---|---|
| KGDSLRYYYAN | GKNNRPS | RSRDSEGFQVF | 3.5 µM | 1 of 3 |
| EGDSLRYNYAN | GKNNRPD | SSRTSSGFQVF | 10 nM | 3 of 3 |
| EGDSLRYYYAN | GKNNPPS | SSWDSSGFQVF | 2.8 µM | 2 of 3 |
| EGDSLRYYYAN | GKNNRLS | ISRDSPGFQVF | 41 µM | 2 of 3 |
| EGDSLRYGYAN | GKNNRPS | SSRDDSWFQVF | 32 nM | 3 of 3 |
| EGDSLRYLYAN | GKNNRNS | SSHDSSGFQVF | not detected | 0 of 3 |
| EGDSLRYYYAT | GKNNRPS | SSRNSVGFQVF | 21 µM | 2 of 3 |
| EGDSLRTYYAN | GKNNRPS | SGRDISGFQVF | 200 nM | 3 of 3 |
| EGDSLRYEYAN | GKNNRPS | MSRDSSGQQVF | 38 nM | 3 of 3 |
| EGDNLRYYYAN | GKNNRPS | ASRDSSGFPVF | not detected | 0 of 3 |
| EGDSLRYYYAN | GKNNRPS | SFVDSKGFQVF | not detected | 0 of 3 |
| EGHSLRYYYAN | GKNNRPS | SSRDSSGFSVQ | 410 nM | 3 of 3 |
| EGDSLRYYYWN | GKNNRPS | SSRQSSGFAVF | 4.5 µM | 2 of 3 |
| DRDSLRYYYAN | GKNNRPK | SSRDSSGFQVF | 440 nM | 3 of 3 |
| EGDSLRYYYAN | GKNNFPS | SSRDNSGFHVF | not detected | 0 of 3 |
| EGDSMRYYQAN | GKNNRPD | SSRDSSGFQVF | 26 nM | 3 of 3 |
| EGDMLRYYYAN | GKNNRQS | SSRDSSGFMVF | 19 µM | 2 of 3 |
| EIDSLRYYYAN | GKNNRPL | SSADSSGFQVF | 28 µM | 3 of 3 |
| EGDSLRYNYAN | GHNNRPS | YSRDSSGFQVF | 13 nM | 3 of 3 |
| EGDSLRYYYAN | GKQNRGS | SSRDSSGFQPF | 950 nM | 3 of 3 |
| EGDSLRYYDAL | GKNNRPS | SSRDSSGFQVF | 5.1 µM | 3 of 3 |
| EGDELWYYYAN | GKNNRPS | SSRDSSGFQVF | 7.8 µM | 1 of 3 |
| FGDSLRYYYAN | GKNNRPS | SSRDLSDFQVF | 1.4 µM | 3 of 3 |
| EGESLRYYYVN | GHNNRPS | SSRDSSGFQVF | 500 nM | 3 of 3 |
| EGDSLRYYYAN | GKINHPS | SSRDSSGFQIF | 8.1 µM | 2 of 3 |
| KGWSLRYYYAN | DKNNRPS | SSRDSSGFQVF | 520 nM | 3 of 3 |
| EGDSLRLYYAN | GKNNDIS | SSRDSSGFQVF | 97 µM | 1 of 3 |
| EGDSIRYYYAN | AKNNRPS | SSRDSSGFQVF | 13 µM | 1 of 3 |
| EGDSLRYYYAN | GKNNRPI | SHRDSSGFQVL | 400 nM | 1 of 3 |
| EGISLRYYYAN | GKNNRLS | STRDSSGFQVF | 4.4 µM | 1 of 3 |
| EGDSLRYYNAP | GKNGRPS | SSRDSSGFQVF | 49 µM | 2 of 3 |
| EGQSLRYYYAN | GKNNRPS | SSRDSSGFQVG | 86 nM | 3 of 3 |
| EGDSLNYYYAN | SKNNRES | SSRDSSGFQVF | 5.0 µM | 3 of 3 |
| EGDMLRYDYAN | GKNNRPS | QSRDSSGFQVF | 2.4 µM | 3 of 3 |
| EGDSLRYYYAN | GKRNRPS | SSRDSSGFQMQ | 690 µM | 1 of 3 |
| EGDSLRYYYAS | GKNIRCS | SSRDSSGFQVF | 160 µM | 1 of 3 |
| EGDSLRYYYAN | GKNWRRQ | SSRDSSGFQVF | 3.2 µM | 3 of 3 |
| EGDSLRYYYAN | FKPNRPS | SSDDSSGFQVF | not detected | 0 of 3 |
| YGDSLRYYYAN | MKNNRPS | SSRDSSGFHVF | 13 µM | 1 of 3 |
| EGDSLRYYYAN | GKNNRPS | ESRDTSYFQVF | 250 nM | 3 of 3 |
| EHDSLRYYYAN | GKNIVPS | SSRDSSGFQVF | 1.2 µM | 2 of 3 |
| EGDSLRYYYDN | GKNNRPS | SSRDSQGFQVF | 3.9 µM | 3 of 3 |
| EGNSLRYYYAN | GKNNRYS | SSRDASGFQVF | 470 nM | 3 of 3 |
| EGDSLRYYYVN | GKNNRFS | SKRDSSGFQVF | not detected | 0 of 3 |
| ETDSLRYYYAN | YKNNRPS | SSRDSSGLQVF | not detected | 0 of 3 |
| EGDSLRYYYAN | GKNNRQS | SSRDSTGFQLF | 270 nM | 3 of 3 |
| EEDSLRYYYAN | GKNNRPS | SSRDQSSFQVF | 150 µM | 1 of 3 |
| EGDSLRYYYAN | GKNNRCS | SPRDSSGFQVF | 1.6 µM | 3 of 3 |
| EGDSLGYYYAN | GFNNRPS | SSRDSSGFLVF | 28 µM | 2 of 3 |
| EGDVLIYYYAN | GKNMRPS | SSRDSSGFQVF | 17 µM | 1 of 3 |
| EGDSLRYYYAN | DKNNPPS | SSRDRSGFQVF | 1.2 µM | 1 of 3 |
| EGDSLRYYYAN | GKTNRVS | ISRDSSGFQVF | 4.0 µM | 3 of 3 |
| EGDKLRYYYAN | GKNNRPS | SSRDSSGCQVQ | not detected | 0 of 3 |
| AGDSLRVYYAN | GKNNRPS | SSRDSDGFQVF | 5.4 µM | 2 of 3 |
| EGDSLTYYYAN | GKNNRPS | SSRDSSGFAVH | 420 nM | 3 of 3 |
| EGDSLRYYMAN | GKNNRPS | ESRDSSGFQVK | 480 nM | 3 of 3 |
| EGDSLRYYYAN | GKNNRPS | SSRDSSGHQNE | 180 nM | 3 of 3 |
| EGDSLRSYYEN | GKNNRDS | SSRDSSGFQVF | 2.2 µM | 1 of 3 |
| ELDSLRYYYAN | GKNNRPS | WSRDSSGFQVF | 4.5 µM | 1 of 3 |
| EGDSLRYYYAN | GKNNRPF | SSEDSSGFQVE | 170 nM | 3 of 3 |
| EGDQLRYYTAN | GKNNRPS | SSRDSSGFQVF | 400 nM | 3 of 3 |
| EGDSLRYMYAN | GKYNRPS | TSRDSSGFQVF | 2.1 µM | 3 of 3 |
| EGDSLRYYYAN | GKNNFPI | SSRPSSGFQVF | 35 µM | 2 of 3 |
| EGDSCRYYYAN | GKNNRPS | SSRRGSGFQVF | 19 µM | 1 of 3 |
| EGDSLRYYSAN | GKNKRPS | SSRDSSGFQVF | 280 nM | 3 of 3 |